Target: T1, peripheral-type BZ receptors (Rattus norvegicus, UniProt P16257)
T1 construct: displacement of ^3 H-RO5-4864 in brain homogenates; from tissue; host or cells: brain homogenates
Experiment: Competitive binding assay, displacement of 3H-Ro5-4864 in brain homogenates
Text: Sprengel, R., et al., "Molecular cloning and expression of cDNA encoding a peripheral-type benzodiazepine receptor," J. Biol. Chem., 264:20415-20421 (1989).
Some of these compounds were further tested in in vivo studies.

CC(C)(C)OC(=O)c1ncn2c1[C@@H]1CCCN1C(=O)c1c(Br)cccc1-2 [Rol6-6028]
binding affinity to peripheral-type BZ sites (in words): very high IC50 values

O=C1CN=C(c2ccccc2Cl)c2cc([N+](=O)[O-])ccc2N1 [Clonazepam]
binding affinity to peripheral-type BZ sites (in words): very high IC50 values
